Hits are enriched below; roughly 2.8% of the tested compounds scored in any of these assays.
UUG fidelity – modulators of start codon recognition fidelity in yeast; AID 602363; hit rate 0.13% among 350,000; activity score, % at 18.7 µM; S. cerevisiae UUG-firefly luciferase reporter, luminescence/redox ratio;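 active = replicate mean at a twofold rise or more, about +100% in these data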;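 note: firefly luciferase made from a UUG start codon reports start codon fidelity; reporter light over untreated wells divided by growth signal over untreated wells; some hits fall short of that in this replicate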
miR-122 sensor – miR-122 Renilla sensor signal increase in Huh7, primary screen, miR-122 inhibitor project, cell-based, single point, plate reader; Huh7 miR-122 Renilla luciferase sensor, 48 h; neutral wells = 0, positive control = 100; activation (reporter increase), % at 12.5 µM; 340,000 tested, 0.3% active; AID 602342, 2012;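 active = mean replicate activation score at least 90 and every replicate individually at or above 90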;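 also: higher luciferase means less miR-122 activity so hits act as miR-122 inhibitors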
PglD inh – C. jejuni PglD acetyltransferase inhibitors, primary screen, biochemical, DTNB colorimetric, single point | UDP-N-acetylbacillosamine N-acetyltransferase PglD (Campylobacter jejuni) | purified PglD enzyme, DTNB colorimetric CoA detection | inhibition, % at 12.5 µM | 360,000 tested, 0.098% active | AID 602405, 2012; in the data active = inhibition above about 16%, passing the limit was not always enough
esBAF inh – Bmi1 luciferase reporter increase in mESCs, primary screen, esBAF inhibitor project, mouse ES cells, Bmi1 luciferase knock-in, single point; reporter increase, % at 12.5 µM; 350,000 tested, 2% active; 24 h; 100% = twice the neutral-well signal; in the data active = activation above about 40%;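 also: 0% = median of the plate's neutral control wells and 100% = double that signal; a rise in the Bmi1 reporter signal indicates esBAF inhibition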
Wnt act – Wnt/beta-catenin pathway activators, primary screen, cell-based, plate reader, single point; Wnt/beta-catenin reporter cell assay, activator; activation, % at 9.35 µM; 300,000 tested, 1.2% active; in the data active = activation above about 30%, passing the limit was not always enough;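 also: 0% = neutral control wells and 100% = positive control wells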
MITF act – activators of MITF-driven TRPM1 promoter reporter, primary screen, cell-based, SK-MEL-5, luciferase, single point; SK-MEL-5 TRPM1-promoter luciferase, 24 h; % of positive control, neutral wells = 0; activation, % at 12.5 µM; 300,000 tested, 0.75% active; AID 588334, 2011;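 active = mean activation of at least 80% with every replicate also reaching 80%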;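 also: 0% = neutral control wells and 100% = parthenolide positive control wells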
An asterisk follows results filed as active; [ ] = remark or other dose.

What do the screens show for `CO[C@H]1CN(C)C(=O)c2ccc(NC(C)=O)cc2OC[C@@H](C)N(C(=O)c2ccccc2F)C[C@H]1C`?
miR-122 sensor: -19[16.7 µM]; PglD inh: 0; esBAF inh: 1

How did O=[N+]([O-])c1ccccc1NCCOc1ccccc1 do in these assays?
Wnt act: 67*; MITF act: 65

What do the screens show for `O=C(CCOc1ccccc1)Nc1ccccc1[N+](=O)[O-]`?
Wnt act: 2; MITF act: 7

How did COc1ccc(C(C)(C)C)cc1S(=O)(=O)n1ccnc1C do in these assays?
miR-122 sensor: 95*; Wnt act: 0; MITF act: 13

How did Cc1cc(C)n(CC(=O)N/N=C/c2cc(Br)cc([N+](=O)[O-])c2O)n1 do in these assays?
Wnt act: -2; MITF act: 8

What do the screens show for `Cc1cc(C)n(CCC(=O)N/N=C/c2ccc(Br)c([N+](=O)[O-])c2)n1`?
UUG fidelity: -20; miR-122 sensor: 0; PglD inh: 0; esBAF inh: 3; Wnt act: 36*; MITF act: -6

Results for CC(C)OC(=O)Cn1nnc2c(cnn2-c2ccccc2)c1=O ?
UUG fidelity: -18; miR-122 sensor: -4; PglD inh: 1; esBAF inh: 47*; MITF act: 41

What do the screens show for `NC(N)=NC(=O)c1nc(Cl)c(N2CCCCCC2)nc1N`?
UUG fidelity: -22; miR-122 sensor: -3; PglD inh: -1; esBAF inh: 59*; Wnt act: 21; MITF act: 126*

Results for NC(N)=NC(=O)c1nc(Cl)c(N)nc1N ?
UUG fidelity: -23; miR-122 sensor: 3; PglD inh: -7; esBAF inh: -28; Wnt act: 1; MITF act: -5

Results for Cc1cc(-n2c(C)cc(C(=O)CSc3ccccn3)c2C)no1 ?
UUG fidelity: -20; PglD inh: -4; esBAF inh: 76*; Wnt act: 21; MITF act: 107*

What do the screens show for `Cc1cc(-n2c(C)cc(C(=O)CSc3nnnn3-c3ccccc3)c2C)no1`?
UUG fidelity: -32; miR-122 sensor: 2; PglD inh: -6; esBAF inh: 5; Wnt act: -5; MITF act: -2

Results for O=C(Nc1ccc(F)cc1)N[C@H]1CC[C@@H](CCNS(=O)(=O)c2cccc(Cl)c2)O[C@@H]1CO ?
UUG fidelity: -5; PglD inh: 2; esBAF inh: 0

Results for O=S(=O)(NCCc1ccncc1)c1ccc(Br)cc1 ?
UUG fidelity: -18; miR-122 sensor: 192*; PglD inh: 8; esBAF inh: -1; Wnt act: -1; MITF act: -7

Results for O=C1c2ccccc2C(=O)N1Cc1ccco1 ?
UUG fidelity: -13; miR-122 sensor: 0; PglD inh: -1; esBAF inh: -13; MITF act: -1

What do the screens show for `CC1=CC(=C2C(=O)c3ccccc3C2=O)C=C(C)N1Cc1ccco1`?
Wnt act: 51*; MITF act: 40

How did Cc1ccc(/C=C2/CCc3c([nH]c4ccccc34)C2=O)cc1 do in these assays?
UUG fidelity: -15; miR-122 sensor: 42; PglD inh: 0; esBAF inh: 34; Wnt act: 54*; MITF act: 100*

What do the screens show for `CC(C)/C=C1\CCc2c([nH]c3ccccc23)C1=O`?
Wnt act: 10; MITF act: 29

How did Cc1ccc2[nH]c3c(c2c1)CC/C(=C/c1ccccc1)C3=O do in these assays?
UUG fidelity: -10; miR-122 sensor: 7; PglD inh: -4; esBAF inh: 91*; Wnt act: -3

How did O=C1/C(=C\c2ccccc2)CCc2c1[nH]c1ccccc21 do in these assays?
UUG fidelity: -5; miR-122 sensor: 33; PglD inh: 2; esBAF inh: 34; Wnt act: 39*; MITF act: 52

A stretch from further up, for reference:
Results for CC(C)OC(=O)Cn1nnc2c(cnn2-c2ccccc2)c1=O ?
UUG fidelity: -18; miR-122 sensor: -4; PglD inh: 1; esBAF inh: 47*; MITF act: 41

What do the screens show for `NC(N)=NC(=O)c1nc(Cl)c(N2CCCCCC2)nc1N`?
UUG fidelity: -22; miR-122 sensor: -3; PglD inh: -1; esBAF inh: 59*; Wnt act: 21; MITF act: 126*
